This is a selection; strong and weak results do not stand in their true shares. Some results for these compounds are left out of this collection, so the calls shown say nothing about other tests. Records with an inconclusive call do not appear. The source made the active and inactive calls. Rule as the data show it: active = CPE inhibition above about 20% (passing the limit was not always enough); inconclusive = no clear call, values can overlap the other calls; tested in BHK-21 cells.

This test is described as follows: inhibitors of DENV2 cytopathic effect, primary screen, cell-based, plate reader, single concentration (AID 651640).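 Also: 0% = median of neutral control wells and 100% = median of positive control wells.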 As to conditions: DENV2-infected cells, cytopathic effect rescue, at 9.99 µM, hits give high values. In general terms: Damage to the host cells serves as the signal in cytopathic effect assays.
Consider `O=C(NCC1(N2CCCCC2)CCCCC1)c1cc([N+](=O)[O-])ccc1Cl`, for which the CPE inhibition was inactive: -4.88%.

Consider `CN1[C@@H]2CC[C@H]1CC(OC(=O)C(O)(c1ccccc1)c1ccccc1)C2` (some centres not stated), for which the CPE inhibition was inactive: 16.9%.

For `COc1cc(SC)ccc1C(=O)NCC1(N(C)C)CCCCC1`, the CPE inhibition is inactive: 16%.

As for `CCN(CC)CC(C)C(C)OC(=O)C(O)(c1ccccc1)c1ccccc1` (configuration not stated), the CPE inhibition was inactive: -6.84%.

For `Cc1ccc(C(=O)NCC2(N3CCCCC3)CCCCC2)cc1`, the CPE inhibition was inactive: 3.36%.

As to `CN(C)C1CCCC1OC(=O)C(O)(c1ccccc1)c1ccccc1` (configuration not stated), the CPE inhibition was inactive: 11.6%.

On to `CN(C)c1ccc(C(=O)NCC2(N(C)C)CCCCC2)cc1`, for which the CPE inhibition was inactive: 1.54%.

As to `Cc1ccccc1C(=O)NCC1(N2CCCCC2)CCCCC1`, the CPE inhibition is inactive: 9.44%.

For the compound `O=C(NCC1(N2CCCCC2)CCCCC1)c1cc(F)c(F)cc1Cl`, the CPE inhibition was inactive: 6.48%.

As to `C=CCN1CCN(CCOC(=O)C(O)(c2ccccc2)c2ccccc2)CC1`, the CPE inhibition is inactive: -6%.

Take `COc1ccc(C(=O)NCC2(N(C)C)CCCCC2)cc1`: the CPE inhibition was inactive: -0.698%.

On to `O=C(NCC1(N2CCCCC2)CCCCC1)c1cccc(Br)c1`, for which the CPE inhibition is inactive: 3.72%.

On to `Cc1cc(C(=O)NCC2(N3CCCCC3)CCCCC2)ccc1[N+](=O)[O-]`, for which the CPE inhibition is inactive: 6.77%.

Turning to `CN(C)C1(CNC(=O)c2ccc(Br)cc2)CCCCC1`, the CPE inhibition was inactive: -0.137%.

As for `COc1cc(C(=O)NCC2(N(C)C)CCCCC2)c([N+](=O)[O-])cc1OC`, the CPE inhibition was inactive: 8.03%.

For `COc1ccc(Cl)cc1C(=O)NCC1(N(C)C)CCCCC1`, the CPE inhibition was inactive: -0.842%.

For `COc1cccc(C(=O)NCC2(N3CCCCC3)CCCCC2)c1`, the CPE inhibition was inactive: 3.66%.

With `O=C(NCC1(N2CCCCC2)CCCCC1)c1cccc(Cl)c1`, the CPE inhibition is inactive: -4.79%.

`C=C(C)C#CC(O)(C(=O)OC1CCN(C)CC1)c1ccccc1` (configuration not stated): the CPE inhibition was inactive: 13.4%.

Take `COc1ccc(Br)c(C(=O)NCC2(N3CCCCC3)CCCCC2)c1`: the CPE inhibition is inactive: 1.06%.

Consider `O=C(OCCN1CCCC1)C(O)(c1ccccc1)c1ccccc1`, for which the CPE inhibition is inactive: -0.121%.

With `CC(C)Oc1ccc(C(=O)NCC2(N(C)C)CCCCC2)cc1`, the CPE inhibition is inactive: 0.0395%.
